{
  "source": "patent US5906922A",
  "about": "“Delivery of nucleic acids” (Commonwealth Scientific and Industrial Research Organisation, priority 1994, dated 1999)",
  "system": "Cos 1 cells",
  "experiment": "MTT cytotoxicity assay",
  "type": "cell-based, African Green Monkey",
  "settings": "72 hours continuous exposure, 50 μM or greater",
  "description": "Cytotoxicity was assayed using a standard MTT (3-[4,5x, Dimethylthiazol-2-yl]2, 5-diphenyltetrazolium bromide; Thiazole blue) assay. Briefly Cos 1 cells were seeded at 2×10^4 cells/well in a 96 well microtitre tray and allowed to adhere overnight in 100 μl of culture medium. Test compound was then added at 2×concentration in 100 μl of culture medium in doubling dilutions down the plate. Cells were incubated under normal culture conditions of 37° C. and 5% CO2 for 72 hours. 20 μl of MTT (5mg/ml in PBS) was added for 2.5 hours at 37° C. and then all liquid removed. 100 μl of acidic propanol was added and the plate shaken for 10 minutes before reading the OD at 570 nm with ref OD 630 nm.\nA lead compound, K3ATP3 (tri lysine alanine tris tripalmitate) called VerafectinA3, was designed which would be expected to attract DNA by virtue of its overall positive charge. […] Cytotoxicity was tested by exposing Cos 1 cells continuously for 72 hours to the K3ATP3 diluted from a stock of 2.5 mg/ml in 25% DMSO. There was 70% survival of cells compared to the same concentration of DMSO diluent at 12.5-50 μM compound (FIG. 1a and b).",
  "data": [
    {"substance": "fluorescein alanine ethanolamine palmitate [FLAEP]", "values": [
      {"measurement": "cytotoxicity (MTT)", "value": "significant cytotoxicity"}
    ]}
  ]
}
